{"source": "paper PMC8027564", "about": "“A novel luminescence-based β-arrestin recruitment assay for unmodified receptors” (The Journal of Biological Chemistry, 2021)", "target": "T1, AT1R (Homo sapiens, UniProt P30556)", "T1 construct": "signal peptide (N); expressed in transfected cells; host or cells: Hek293", "experiment": "MeNArC β-arrestin membrane recruitment assay, unmodified AT1R, Hek293", "format": "cell-based", "conditions": "0.1 μM Ang II added after antagonist"}
{"smiles": "CCCc1nc(C(C)(C)O)c(C(=O)O)n1Cc1ccc(-c2ccccc2-c2nnn[nH]2)cc1", "note": "[olmesartan]", "values": [{"measurement": "inhibition of agonist-induced response by antagonist added before agonist", "value": "prevent the agonist-induced response"}]}
